Where a name gives a salt, the structure may show the parent alone.
Tested on: C57BL/6J mice
Test: Locomotor sensitization after repeated daily dosing (day 1 vs day 7)
Conditions: fentanyl 0.5, morphine 24, oliceridine 3 (first 30 min), SR-15099 12, SR-17018 12 mg/kg i.p.

SMILES	Locomotor sensitization after chronic daily dosing (day 7 vs day 1)
COc1ccsc1CNCC[C@@]1(c2ccccn2)CCOC2(CCCC2)C1 [oliceridine, Oliceridine hydrochloride]	sensitization was also observed following chronic daily dosing
CN1CC[C@]23c4c5ccc(O)c4O[C@H]2[C@@H](O)C=C[C@H]3[C@H]1C5 [morphine, Morphine sulfate pentahydrate]	produced enhanced responses after chronic dosing

Source: publication PMC10295947 (Biomolecules, 2023)
